Experimental data as given in ChEMBL document CHEMBL4507280, “Data for DCP probe BI 99179” (2021).

By UniProt entry, the sequences of proteins in these tests, tags left out. Where a name states a change or a piece, a line headed by the entry shows the natural chain unless it says otherwise.
UniProt P49841: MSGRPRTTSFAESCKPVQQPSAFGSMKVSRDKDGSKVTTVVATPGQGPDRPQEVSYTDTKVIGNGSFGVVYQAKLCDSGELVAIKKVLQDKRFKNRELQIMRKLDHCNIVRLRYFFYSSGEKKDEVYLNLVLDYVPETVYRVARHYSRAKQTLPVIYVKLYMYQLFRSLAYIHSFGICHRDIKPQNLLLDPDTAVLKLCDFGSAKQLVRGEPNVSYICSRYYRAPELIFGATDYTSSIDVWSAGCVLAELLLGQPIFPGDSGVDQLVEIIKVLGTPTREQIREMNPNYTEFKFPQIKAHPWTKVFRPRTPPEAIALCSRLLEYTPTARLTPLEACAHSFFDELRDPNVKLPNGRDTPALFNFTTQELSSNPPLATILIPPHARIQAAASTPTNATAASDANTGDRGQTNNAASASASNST
UniProt O75582, whole entry, looked up: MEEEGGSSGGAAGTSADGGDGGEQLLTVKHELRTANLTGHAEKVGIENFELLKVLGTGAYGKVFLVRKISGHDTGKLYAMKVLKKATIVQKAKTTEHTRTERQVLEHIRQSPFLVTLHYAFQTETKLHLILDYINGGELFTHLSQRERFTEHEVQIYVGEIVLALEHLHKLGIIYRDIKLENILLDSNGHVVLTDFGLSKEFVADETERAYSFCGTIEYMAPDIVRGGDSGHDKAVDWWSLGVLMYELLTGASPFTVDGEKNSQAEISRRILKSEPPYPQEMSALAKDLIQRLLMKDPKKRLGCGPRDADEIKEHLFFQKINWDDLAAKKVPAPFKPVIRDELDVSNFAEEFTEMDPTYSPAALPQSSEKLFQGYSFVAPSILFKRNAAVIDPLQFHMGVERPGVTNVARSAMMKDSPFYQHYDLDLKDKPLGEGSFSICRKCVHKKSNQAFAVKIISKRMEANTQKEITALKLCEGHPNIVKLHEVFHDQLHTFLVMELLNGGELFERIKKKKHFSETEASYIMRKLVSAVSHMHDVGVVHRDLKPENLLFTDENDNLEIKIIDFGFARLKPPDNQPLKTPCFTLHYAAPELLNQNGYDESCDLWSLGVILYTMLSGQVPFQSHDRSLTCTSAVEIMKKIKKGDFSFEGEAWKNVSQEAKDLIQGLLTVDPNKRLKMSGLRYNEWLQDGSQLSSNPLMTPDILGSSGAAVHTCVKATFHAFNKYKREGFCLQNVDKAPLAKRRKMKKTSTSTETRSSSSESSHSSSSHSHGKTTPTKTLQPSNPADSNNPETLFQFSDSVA
UniProt Q9Y5S2: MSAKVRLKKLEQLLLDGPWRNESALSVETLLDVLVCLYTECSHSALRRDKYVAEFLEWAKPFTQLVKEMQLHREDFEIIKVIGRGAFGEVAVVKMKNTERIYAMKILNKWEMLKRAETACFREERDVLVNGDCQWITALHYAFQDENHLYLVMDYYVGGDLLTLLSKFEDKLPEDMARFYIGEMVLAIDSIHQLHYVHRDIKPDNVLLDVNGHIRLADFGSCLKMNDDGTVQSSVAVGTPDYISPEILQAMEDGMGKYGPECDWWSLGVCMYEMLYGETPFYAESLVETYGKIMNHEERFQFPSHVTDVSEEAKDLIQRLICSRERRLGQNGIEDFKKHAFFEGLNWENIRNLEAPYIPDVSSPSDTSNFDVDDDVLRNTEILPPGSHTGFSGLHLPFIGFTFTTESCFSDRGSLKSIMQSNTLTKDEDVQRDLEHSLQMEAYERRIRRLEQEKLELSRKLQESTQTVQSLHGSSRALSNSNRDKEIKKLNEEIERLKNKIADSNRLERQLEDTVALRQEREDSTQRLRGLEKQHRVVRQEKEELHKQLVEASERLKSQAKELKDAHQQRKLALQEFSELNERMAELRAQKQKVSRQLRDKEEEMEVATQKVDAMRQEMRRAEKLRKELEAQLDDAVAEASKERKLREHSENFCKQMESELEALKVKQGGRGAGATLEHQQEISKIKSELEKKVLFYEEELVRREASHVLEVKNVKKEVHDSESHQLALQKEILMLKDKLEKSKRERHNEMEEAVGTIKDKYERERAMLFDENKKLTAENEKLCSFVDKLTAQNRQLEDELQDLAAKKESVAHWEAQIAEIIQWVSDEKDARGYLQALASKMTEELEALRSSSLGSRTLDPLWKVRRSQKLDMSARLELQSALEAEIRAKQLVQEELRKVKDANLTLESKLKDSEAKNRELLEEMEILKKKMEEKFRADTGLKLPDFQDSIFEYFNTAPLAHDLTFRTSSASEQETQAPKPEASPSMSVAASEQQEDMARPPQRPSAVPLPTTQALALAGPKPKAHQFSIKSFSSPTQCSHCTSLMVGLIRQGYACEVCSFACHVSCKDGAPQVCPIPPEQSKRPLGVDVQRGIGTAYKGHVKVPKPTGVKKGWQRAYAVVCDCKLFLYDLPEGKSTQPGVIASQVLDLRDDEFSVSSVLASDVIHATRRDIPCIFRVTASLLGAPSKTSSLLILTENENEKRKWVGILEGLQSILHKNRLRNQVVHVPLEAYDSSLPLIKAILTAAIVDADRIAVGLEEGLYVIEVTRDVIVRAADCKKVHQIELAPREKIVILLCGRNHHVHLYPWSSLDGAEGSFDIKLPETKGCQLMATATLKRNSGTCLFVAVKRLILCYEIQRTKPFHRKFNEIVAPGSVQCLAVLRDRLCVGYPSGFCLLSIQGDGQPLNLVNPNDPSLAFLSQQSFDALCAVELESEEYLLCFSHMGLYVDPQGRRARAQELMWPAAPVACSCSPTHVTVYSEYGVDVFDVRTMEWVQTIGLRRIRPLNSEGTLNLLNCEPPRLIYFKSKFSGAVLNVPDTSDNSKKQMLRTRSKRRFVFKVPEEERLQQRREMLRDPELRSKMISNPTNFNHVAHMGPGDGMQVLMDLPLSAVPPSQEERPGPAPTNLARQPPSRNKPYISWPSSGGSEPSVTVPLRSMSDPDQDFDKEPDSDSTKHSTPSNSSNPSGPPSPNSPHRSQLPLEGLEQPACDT

Tests used:
[1] = molecular target: T1, Activin receptor type-1B (Homo sapiens) (UniProt P36896); settings: Compound concentration 1000.0 nM
T1 sequence (whole entry): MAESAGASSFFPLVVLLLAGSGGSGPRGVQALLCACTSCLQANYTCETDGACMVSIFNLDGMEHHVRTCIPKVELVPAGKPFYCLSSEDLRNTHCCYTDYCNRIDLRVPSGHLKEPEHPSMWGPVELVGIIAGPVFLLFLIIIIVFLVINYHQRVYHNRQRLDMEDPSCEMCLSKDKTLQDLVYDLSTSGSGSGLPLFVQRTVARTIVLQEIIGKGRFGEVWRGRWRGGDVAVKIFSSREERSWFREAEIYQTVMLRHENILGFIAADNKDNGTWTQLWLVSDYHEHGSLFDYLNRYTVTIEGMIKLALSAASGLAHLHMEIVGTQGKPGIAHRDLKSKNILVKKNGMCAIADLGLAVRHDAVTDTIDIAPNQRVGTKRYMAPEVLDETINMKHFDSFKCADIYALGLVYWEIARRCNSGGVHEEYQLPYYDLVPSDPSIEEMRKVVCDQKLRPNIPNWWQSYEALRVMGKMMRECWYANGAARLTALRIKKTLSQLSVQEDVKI

[2] = molecular target: Tyrosine-protein kinase Fgr (Homo sapiens) (UniProt P09769); settings: Compound concentration 1000.0 nM
[3] = molecular target: Glycogen synthase kinase-3 beta (Homo sapiens) (UniProt P49841); settings: Compound concentration 1000.0 nM
[4] = molecular target: T2, Uncharacterized serine/threonine-protein kinase SBK3 (Homo sapiens) (UniProt P0C264); settings: Compound concentration 1000.0 nM
T2 sequence (whole entry): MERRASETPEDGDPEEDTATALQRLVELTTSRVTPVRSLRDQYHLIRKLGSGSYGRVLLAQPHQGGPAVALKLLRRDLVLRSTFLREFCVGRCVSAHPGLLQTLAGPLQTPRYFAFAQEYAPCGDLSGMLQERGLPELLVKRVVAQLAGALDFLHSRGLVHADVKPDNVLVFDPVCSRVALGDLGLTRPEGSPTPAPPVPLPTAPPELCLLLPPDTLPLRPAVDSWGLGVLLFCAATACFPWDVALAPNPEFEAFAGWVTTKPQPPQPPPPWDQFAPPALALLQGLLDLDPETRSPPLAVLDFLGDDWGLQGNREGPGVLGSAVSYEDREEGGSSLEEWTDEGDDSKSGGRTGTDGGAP

[5] = molecular target: Dual specificity mitogen-activated protein kinase kinase 2 (Homo sapiens) (UniProt P36507); settings: Compound concentration 1000.0 nM
[6] = system: Tyrosine-protein kinase ABL1 (Homo sapiens), P00519 [F317I]; settings: Compound concentration 1000.0 nM
[7] = I2/CENTR/R Eurofins-Panlabs selectivity data (BI); settings: Compound concentration 10.0 uM
[8] = molecular target: Ribosomal protein S6 kinase alpha-5 (Homo sapiens) (UniProt O75582); settings: Compound concentration 1000.0 nM
[9] = molecular target: T3, Peripheral plasma membrane protein CASK (Homo sapiens) (UniProt O14936); settings: Compound concentration 1000.0 nM
T3 sequence (whole entry): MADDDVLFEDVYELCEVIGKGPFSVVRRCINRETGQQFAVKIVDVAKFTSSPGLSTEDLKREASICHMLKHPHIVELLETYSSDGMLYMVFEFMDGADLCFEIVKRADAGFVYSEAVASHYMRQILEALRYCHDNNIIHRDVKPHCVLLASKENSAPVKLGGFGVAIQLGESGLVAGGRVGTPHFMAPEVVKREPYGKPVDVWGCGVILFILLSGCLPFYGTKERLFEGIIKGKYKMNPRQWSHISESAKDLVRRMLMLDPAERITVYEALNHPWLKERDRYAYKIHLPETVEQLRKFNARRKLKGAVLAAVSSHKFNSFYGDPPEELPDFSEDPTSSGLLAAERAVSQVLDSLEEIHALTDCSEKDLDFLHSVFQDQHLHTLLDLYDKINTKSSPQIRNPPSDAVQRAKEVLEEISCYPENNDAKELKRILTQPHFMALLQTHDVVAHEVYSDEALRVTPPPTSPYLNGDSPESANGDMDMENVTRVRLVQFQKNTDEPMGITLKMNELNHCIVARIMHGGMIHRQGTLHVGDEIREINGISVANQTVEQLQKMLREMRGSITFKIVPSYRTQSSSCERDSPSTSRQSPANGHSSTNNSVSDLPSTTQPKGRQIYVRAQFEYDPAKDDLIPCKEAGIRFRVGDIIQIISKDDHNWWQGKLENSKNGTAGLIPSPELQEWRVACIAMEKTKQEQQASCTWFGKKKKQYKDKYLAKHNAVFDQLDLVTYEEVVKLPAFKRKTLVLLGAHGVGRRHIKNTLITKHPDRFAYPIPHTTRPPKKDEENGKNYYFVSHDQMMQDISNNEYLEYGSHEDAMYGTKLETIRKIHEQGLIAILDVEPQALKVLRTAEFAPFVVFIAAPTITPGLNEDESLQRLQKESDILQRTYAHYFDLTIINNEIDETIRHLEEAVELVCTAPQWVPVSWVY

[10] = molecular target: T4, NUAK family SNF1-like kinase 2 (Homo sapiens) (UniProt Q9H093); settings: Compound concentration 1000.0 nM
T4 sequence (whole entry): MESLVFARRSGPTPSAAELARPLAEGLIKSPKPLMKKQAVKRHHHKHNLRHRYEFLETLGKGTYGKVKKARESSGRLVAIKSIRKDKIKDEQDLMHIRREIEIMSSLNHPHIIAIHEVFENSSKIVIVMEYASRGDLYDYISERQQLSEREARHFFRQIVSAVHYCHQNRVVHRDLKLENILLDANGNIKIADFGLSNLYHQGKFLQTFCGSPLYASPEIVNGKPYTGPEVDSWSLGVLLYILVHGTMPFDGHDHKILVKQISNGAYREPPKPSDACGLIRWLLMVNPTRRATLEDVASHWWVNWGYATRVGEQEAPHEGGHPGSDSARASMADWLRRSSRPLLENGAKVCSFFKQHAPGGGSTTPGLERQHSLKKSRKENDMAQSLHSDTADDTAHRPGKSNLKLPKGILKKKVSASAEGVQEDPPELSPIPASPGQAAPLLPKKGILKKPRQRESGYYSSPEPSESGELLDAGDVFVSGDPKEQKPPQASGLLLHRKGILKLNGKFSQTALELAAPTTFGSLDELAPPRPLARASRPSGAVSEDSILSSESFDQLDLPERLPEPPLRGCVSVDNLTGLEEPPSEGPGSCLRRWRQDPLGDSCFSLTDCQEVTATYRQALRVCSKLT

[11] = molecular target: Serine/threonine-protein kinase MRCK beta (Homo sapiens) (UniProt Q9Y5S2); settings: Compound concentration 1000.0 nM
[12] = molecular target: T5, Serine/threonine-protein kinase BRSK1 (Homo sapiens) (UniProt Q8TDC3); settings: Compound concentration 1000.0 nM
T5 sequence (whole entry): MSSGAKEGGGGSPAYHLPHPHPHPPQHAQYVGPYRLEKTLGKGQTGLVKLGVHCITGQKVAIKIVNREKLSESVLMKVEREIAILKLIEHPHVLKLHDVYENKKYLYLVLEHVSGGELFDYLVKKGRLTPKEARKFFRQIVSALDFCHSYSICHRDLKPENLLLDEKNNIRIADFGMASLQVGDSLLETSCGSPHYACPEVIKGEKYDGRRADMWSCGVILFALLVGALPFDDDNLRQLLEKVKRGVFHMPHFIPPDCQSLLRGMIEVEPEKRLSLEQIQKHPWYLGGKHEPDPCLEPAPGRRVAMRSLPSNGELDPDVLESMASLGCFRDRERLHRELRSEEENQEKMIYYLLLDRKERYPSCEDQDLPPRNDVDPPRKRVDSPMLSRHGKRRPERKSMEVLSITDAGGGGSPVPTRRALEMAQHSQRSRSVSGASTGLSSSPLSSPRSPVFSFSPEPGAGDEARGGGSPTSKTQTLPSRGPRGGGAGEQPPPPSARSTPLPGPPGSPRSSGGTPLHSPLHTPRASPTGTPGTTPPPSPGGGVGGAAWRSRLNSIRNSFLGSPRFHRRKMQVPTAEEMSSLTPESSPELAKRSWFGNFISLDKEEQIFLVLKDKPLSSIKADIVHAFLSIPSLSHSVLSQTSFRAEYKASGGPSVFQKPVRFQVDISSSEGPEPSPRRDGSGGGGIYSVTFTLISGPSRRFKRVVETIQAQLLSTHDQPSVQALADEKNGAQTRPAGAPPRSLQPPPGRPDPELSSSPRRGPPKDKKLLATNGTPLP

[13] = system: Tyrosine-protein kinase ABL1 (Homo sapiens), P00519 [Y253F]; settings: Compound concentration 1000.0 nM
[14] = molecular target: T6, Dual specificity mitogen-activated protein kinase kinase 5 (Homo sapiens) (UniProt Q13163); settings: Compound concentration 1000.0 nM
T6 sequence (whole entry): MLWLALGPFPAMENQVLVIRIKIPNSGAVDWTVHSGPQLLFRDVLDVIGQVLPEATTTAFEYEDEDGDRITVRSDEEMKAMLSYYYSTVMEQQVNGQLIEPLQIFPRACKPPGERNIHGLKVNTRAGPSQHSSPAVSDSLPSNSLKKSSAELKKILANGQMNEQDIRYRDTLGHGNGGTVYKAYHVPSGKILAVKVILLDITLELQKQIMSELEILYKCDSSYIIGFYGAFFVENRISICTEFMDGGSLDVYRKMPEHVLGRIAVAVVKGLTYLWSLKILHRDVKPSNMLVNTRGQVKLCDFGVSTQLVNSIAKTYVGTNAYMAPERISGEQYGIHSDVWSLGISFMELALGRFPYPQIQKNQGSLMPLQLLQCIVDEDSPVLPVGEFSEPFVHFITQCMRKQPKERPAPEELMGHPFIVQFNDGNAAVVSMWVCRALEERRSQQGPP

Measured: residual activity

CCC(=O)N[C@H]1CC[C@@H](C(=O)N(C)c2ccc(-c3nc4ccccc4o3)cc2)C1 [BI 99179]
inactive: [1] 81% | [2] 81% | [3] 81% | [4] 81% | [5] 81% | [6] 81% | [7] 81% | [8] 81% | [9] 81% | [10] 81% | [11] 81% | [12] 81% | [13] 81%

CCC(=O)N[C@@H]1CC[C@H](C(=O)N(C)c2ccc(-c3nc4ccccc4o3)cc2)C1 [BI 99990]
inactive: [14] 81%
